Patent US20100144779A1, “Marine Alkalod Makaluvamines and Derivatives Thereof” (THE UAB RESEARCH FOUNDATION, priority 2007, published 2010)

Chains of the proteins cited; added tags and fusions are not shown. Lines headed by an entry give the natural chain unless they say otherwise; changes in a name come on top.
UniProt P11388: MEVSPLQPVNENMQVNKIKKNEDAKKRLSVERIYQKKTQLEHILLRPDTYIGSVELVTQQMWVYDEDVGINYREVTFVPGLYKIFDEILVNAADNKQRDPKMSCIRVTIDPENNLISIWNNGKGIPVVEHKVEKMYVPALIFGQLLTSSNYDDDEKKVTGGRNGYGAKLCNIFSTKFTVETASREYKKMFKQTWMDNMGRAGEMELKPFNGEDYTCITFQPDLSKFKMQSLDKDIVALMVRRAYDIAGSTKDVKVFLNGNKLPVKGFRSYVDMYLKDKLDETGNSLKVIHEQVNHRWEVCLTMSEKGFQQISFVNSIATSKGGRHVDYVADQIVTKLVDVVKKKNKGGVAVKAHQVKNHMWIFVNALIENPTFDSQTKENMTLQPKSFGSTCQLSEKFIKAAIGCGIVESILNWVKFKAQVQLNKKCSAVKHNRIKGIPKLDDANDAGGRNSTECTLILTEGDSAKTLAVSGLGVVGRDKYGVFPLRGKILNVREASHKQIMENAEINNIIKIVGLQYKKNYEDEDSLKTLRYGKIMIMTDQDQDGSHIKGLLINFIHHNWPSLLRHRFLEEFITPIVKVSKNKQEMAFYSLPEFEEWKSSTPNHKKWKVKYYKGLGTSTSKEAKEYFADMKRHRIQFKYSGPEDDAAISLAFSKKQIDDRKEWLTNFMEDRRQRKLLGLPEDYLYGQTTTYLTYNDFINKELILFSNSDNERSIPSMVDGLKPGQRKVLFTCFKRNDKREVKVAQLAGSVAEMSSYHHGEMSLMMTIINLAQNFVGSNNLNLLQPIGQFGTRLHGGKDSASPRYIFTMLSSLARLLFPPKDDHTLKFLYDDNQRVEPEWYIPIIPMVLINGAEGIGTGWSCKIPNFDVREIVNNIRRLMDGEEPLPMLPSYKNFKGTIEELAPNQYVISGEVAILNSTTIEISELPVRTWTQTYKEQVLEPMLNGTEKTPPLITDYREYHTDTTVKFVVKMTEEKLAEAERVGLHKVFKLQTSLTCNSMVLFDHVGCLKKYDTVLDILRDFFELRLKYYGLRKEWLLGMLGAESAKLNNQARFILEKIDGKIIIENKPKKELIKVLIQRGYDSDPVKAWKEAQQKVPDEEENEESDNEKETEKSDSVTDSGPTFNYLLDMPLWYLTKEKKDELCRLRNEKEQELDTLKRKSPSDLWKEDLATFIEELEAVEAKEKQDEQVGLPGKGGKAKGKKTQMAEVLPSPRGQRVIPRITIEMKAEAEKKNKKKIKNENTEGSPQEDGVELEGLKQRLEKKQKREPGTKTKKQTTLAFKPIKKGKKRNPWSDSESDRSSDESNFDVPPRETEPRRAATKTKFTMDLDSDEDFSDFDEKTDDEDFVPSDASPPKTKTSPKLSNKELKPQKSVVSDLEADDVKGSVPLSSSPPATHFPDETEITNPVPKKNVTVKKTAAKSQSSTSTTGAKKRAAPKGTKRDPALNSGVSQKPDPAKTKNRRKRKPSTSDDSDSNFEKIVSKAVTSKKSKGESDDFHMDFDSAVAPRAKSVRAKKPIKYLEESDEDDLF

Molecular target: T1, topoisomerase II (Homo sapiens, UniProt P11388)
T1 construct: purchased TopoGEN, Inc., Port Orange, Fla
Assay: Topoisomerase II drug screening kit (relaxation of plasmid DNA)
Format: biochemical
Parameters: key: — none; + low; ++ moderate; +++ strong
Conditions: 100 μM drug compound; topoisomerase II (4U), 500 ng plasmid DNA
Text: In order to determine the effect of the makaluvamine derivatives of the present disclosure, the synthesized makaluvamine derivatives were screened for their ability to inhibit topoisomerase II activity in vitro. Topoisomerase II functions by generating a double-stranded DNA break followed by resealing of the break. Topoisomerase II inhibitors interfere with the breakage-rejoining reaction thereby trapping the enzyme in a cleavage complex. In order to determine if the disclosed makaluvamine derivatives inhibited topoisomerase II activity, nine of the derivatives were tested for topoisomerase II inhibitory activity using a topoisomerase-II drug screening kit (TopoGEN, Inc., Port Orange, Fla.) according to the manufacturer's instructions. The screening kit uses a supercoiled plasmid DNA substrate (pRYG) which contains one topoisomerase II cleavage/recognition site. […] Relaxed DNA was separated using non-ethidium bromide (EtBr) agarose gels, then stained with EtBr and quantified using Kodak Gel Logic Imaging System and Molecular Imaging software (Eastman Kodak Co., Rochester, N.Y.). Inhibition of relaxation of plasmid DNA or catalytic activity was reported as; − none, + low, ++ moderate, or +++ strong.

COc1cc([C@@H]2c3cc4c(cc3[C@@H](O[C@@H]3O[C@@H]5CO[C@@H](C)O[C@H]5[C@H](O)[C@H]3O)[C@H]3COC(=O)[C@H]23)OCO4)cc(OC)c1O [Etoposide, reference compound]
Topoisomerase II Inhibition: +
